Results from patent publication US20100092398A1, “ANTIMICROBIAL COMPOSITIONS AND APPLICATIONS THEREFORE” (priority 2004, published 2010).

Assays:
Test in all cases: Minimal effective bactericidal concentration, agar dilution technique
Settings in all cases: 10% water solubilised solutions, Vitamin E emulsifier; 10^5 to 10^6 bacteria/ml
S. aureus = test system: S. aureus
E. coli = test system: E. coli
P. aeruginosa = test system: P. aeruginosa
Salmonella = test system: Salmonella
Listeria = test system: Listeria

SMILES: CC1=CCC(O)(C(C)C)CC1 (centres unmarked) [terpinen-4-ol]
- minimal effective bacterial concentration (killed 99.99% of the bacteria) (S. aureus): 250 ppm
- minimal effective bacterial concentration (killed 99.99% of the bacteria) (E. coli): No level (>500 ppm)
- minimal effective bacterial concentration (killed 99.99% of the bacteria) (P. aeruginosa): No level (>500 ppm)
- minimal effective bacterial concentration (killed 99.99% of the bacteria) (Salmonella): No level (>500 ppm)
- minimal effective bacterial concentration (killed 99.99% of the bacteria) (Listeria): No level (>500 ppm)
